{"source": "ChEMBL document CHEMBL1649315", "about": "“Extended-spectrum cephalosporinase in Acinetobacter baumannii” (Antimicrob Agents Chemother, 2010)", "key": {"[1]": {"test_system": "CC(=O)OCC1=C(C(=O)O)N2C(=O)[C@@H](NC(=O)Cc3cccs3)[C@H]2SC1", "test": "(§1) Ratio of Kcat to Km for Acinetobacter baumannii ADC-11 beta-lactamase"}, "[2]": {"test_system": "O=C(Cc1cccs1)N[C@@H]1C(=O)N2C(C(=O)[O-])=C(C[n+]3ccccc3)CS[C@H]12", "test": "as §1"}, "[3]": {"test_system": "C[C@@H](O)[C@H]1C(=O)N2C(C(=O)O)=C(SCCNC=N)C[C@H]12", "test": "as §1"}, "[4]": {"test_system": "CO/N=C(\\C(=O)N[C@@H]1C(=O)N2C(C(=O)[O-])=C(C[N+]3(C)CCCC3)CS[C@H]12)c1csc(N)n1", "test": "as §1"}, "[5]": {"test_system": "C[C@H]1[C@H](NC(=O)/C(=N\\OC(C)(C)C(=O)O)c2csc(N)n2)C(=O)N1S(=O)(=O)O", "test": "(§2) Ratio of Kcat to Ki for Acinetobacter baumannii ADC-11 beta-lactamase"}, "[6]": {"test_system": "CO/N=C(\\C(=O)N[C@@H]1C(=O)N2C(C(=O)O)=C(COC(C)=O)CS[C@H]12)c1csc(N)n1", "test": "as §2"}, "[7]": {"test_system": "CCN1CCN(C(=O)N[C@@H](C(=O)N[C@@H]2C(=O)N3[C@@H]2SC(C)(C)[C@@H]3C(=O)O)c2ccccc2)C(=O)C1=O", "test": "(§3) Activity of Acinetobacter baumannii ADC-11 beta-lactamase"}, "[8]": {"test_system": "CO[C@@]1(NC(=O)Cc2cccs2)C(=O)N2C(C(=O)O)=C(COC(N)=O)CS[C@@H]21", "test": "as §3"}, "[9]": {"test_system": "O=C(Cc1cccs1)N[C@@H]1C(=O)N2C(C(=O)[O-])=C(C[n+]3ccccc3)CS[C@H]12", "test": "as §3"}, "[10]": {"test_system": "C[C@@H](O)[C@H]1C(=O)N2C(C(=O)O)=C(SCCNC=N)C[C@H]12", "test": "as §3"}, "[11]": {"test_system": "CO/N=C(\\C(=O)N[C@@H]1C(=O)N2C(C(=O)[O-])=C(C[N+]3(C)CCCC3)CS[C@H]12)c1csc(N)n1", "test": "as §3"}, "[12]": {"test_system": "C[C@H]1[C@H](NC(=O)/C(=N\\OC(C)(C)C(=O)O)c2csc(N)n2)C(=O)N1S(=O)(=O)O", "test": "(§4) Activity of Acinetobacter baumannii ADC-33 beta-lactamase"}, "[13]": {"test_system": "C[C@@H](O)[C@H]1C(=O)N2C(C(=O)O)=C(SCCNC=N)C[C@H]12", "test": "as §4"}, "[14]": {"test_system": "CO/N=C(\\C(=O)N[C@@H]1C(=O)N2C(C(=O)O)=C(COC(C)=O)CS[C@H]12)c1csc(N)n1", "test": "as §4"}, "[15]": {"test_system": "CC1(C)S[C@@H]2[C@H](NC(=O)Cc3ccccc3)C(=O)N2[C@H]1C(=O)O", "test": "as §4"}, "[16]": {"test_system": "CO/N=C(\\C(=O)N[C@@H]1C(=O)N2C(C(=O)[O-])=C(C[N+]3(C)CCCC3)CS[C@H]12)c1csc(N)n1", "test": "as §4"}, "[17]": {"test_system": "CC(C)(O/N=C(\\C(=O)N[C@@H]1C(=O)N2C(C(=O)[O-])=C(C[n+]3ccccc3)CS[C@H]12)c1csc(N)n1)C(=O)O", "test": "(§5) Ratio of Kcat to Km for Acinetobacter baumannii ADC-33 beta-lactamase"}, "[18]": {"test_system": "C[C@@H](O)[C@H]1C(=O)N2C(C(=O)O)=C(SCCNC=N)C[C@H]12", "test": "as §5"}, "[19]": {"test_system": "CO/N=C(\\C(=O)N[C@@H]1C(=O)N2C(C(=O)[O-])=C(C[N+]3(C)CCCC3)CS[C@H]12)c1csc(N)n1", "test": "as §5"}}, "data": [{"substance": "ADC-11 (Acinetobacter baumannii) (from UniProt D6NSM8)", "values": [{"measurement": "kcat/Km", "setting": "[1]", "result": "2.5e+06", "unit": "M⁻¹ s⁻¹"}, {"measurement": "kcat/Km", "setting": "[2]", "result": "2.5e+06", "unit": "M⁻¹ s⁻¹"}, {"measurement": "kcat/Km", "setting": "[3]", "result": 2500, "unit": "M⁻¹ s⁻¹"}, {"measurement": "kcat/Km", "setting": "[4]", "result": 500, "unit": "M⁻¹ s⁻¹"}, {"measurement": "kcat/Km", "setting": "[5]", "result": "2e+06", "unit": "M⁻¹ s⁻¹"}, {"measurement": "kcat/Km", "setting": "[6]", "result": 100000, "unit": "M⁻¹ s⁻¹"}, {"measurement": "Km", "setting": "[7]", "result": 25, "unit": "µM"}, {"measurement": "kcat", "setting": "[8]", "result": 1.5, "unit": "s⁻¹"}, {"measurement": "Km", "setting": "[9]", "result": 250, "unit": "µM"}, {"measurement": "Km", "setting": "[10]", "result": 6, "unit": "µM"}, {"measurement": "kcat", "setting": "[10]", "result": 0.015, "unit": "s⁻¹"}, {"measurement": "Km", "setting": "[11]", "result": 1800, "unit": "µM"}, {"measurement": "kcat", "setting": "[11]", "result": 1, "unit": "s⁻¹"}]}, {"substance": "Beta-lactamase ADC-33 (Acinetobacter baumannii) (from UniProt B2ZTR6)", "values": [{"measurement": "kcat", "setting": "[12]", "result": 0.015, "unit": "s⁻¹"}, {"measurement": "Km", "setting": "[13]", "result": 5, "unit": "µM"}, {"measurement": "kcat", "setting": "[13]", "result": 0.01, "unit": "s⁻¹"}, {"measurement": "kcat", "setting": "[14]", "result": 1, "unit": "s⁻¹"}, {"measurement": "kcat", "setting": "[15]", "result": 15, "unit": "s⁻¹"}, {"measurement": "Km", "setting": "[16]", "result": 1300, "unit": "µM"}, {"measurement": "kcat", "setting": "[16]", "result": 10, "unit": "s⁻¹"}, {"measurement": "kcat/Km", "setting": "[17]", "result": 150000, "unit": "M⁻¹ s⁻¹"}, {"measurement": "kcat/Km", "setting": "[18]", "result": 2000, "unit": "M⁻¹ s⁻¹"}, {"measurement": "kcat/Km", "setting": "[19]", "result": 10000, "unit": "M⁻¹ s⁻¹"}]}]}
